For this experiment, the target named is Mu-type opioid receptor (Homo sapiens) (UniProt P35372). Description: Inhibition of DAMGO stimulated [35S]GTP-gamma-S binding to cloned human mu opioid receptor expressed in CHO cells. It is filed as functional, cell-based. In outline:
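Antagonism measured as a rightward shift of the agonist concentration–response curve for [35S]GTPγS binding in CHO cells expressing the cloned human receptor. Curves were run with and without one fixed concentration of test compound. Ke = [L]/(DR − 1), where [L] is the test compound concentration and DR is the ratio of agonist EC50 with versus without test compound.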

Protein sequences, listed by entry. Tags and fused reporters are not part of them.
UniProt P35372, whole entry: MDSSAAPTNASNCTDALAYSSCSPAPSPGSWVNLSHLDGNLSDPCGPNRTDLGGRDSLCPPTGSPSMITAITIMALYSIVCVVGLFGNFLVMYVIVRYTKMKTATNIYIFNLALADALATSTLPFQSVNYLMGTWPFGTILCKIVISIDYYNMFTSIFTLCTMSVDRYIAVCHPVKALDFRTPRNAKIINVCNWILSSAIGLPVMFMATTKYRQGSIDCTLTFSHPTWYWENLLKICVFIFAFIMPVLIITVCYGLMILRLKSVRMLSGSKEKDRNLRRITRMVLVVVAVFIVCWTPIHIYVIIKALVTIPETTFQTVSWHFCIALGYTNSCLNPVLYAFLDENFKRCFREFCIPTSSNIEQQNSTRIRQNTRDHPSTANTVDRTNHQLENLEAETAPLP

The molecule `CC(C)[C@@H](CN1CC[C@@](C)(c2cccc(O)c2)[C@@H](C)C1)NC(=O)[C@H]1Cc2ccc(O)cc2CN1` showed a Ke of 25 nM.

These data come from ChEMBL document CHEMBL1138153, “N-substituted 4beta-methyl-5-(3-hydroxyphenyl)-7alpha-amidomorphans are potent, selective kappa opioid receptor antagonists” (J Med Chem, 2006).
